The entries are a selection whose mix differs from that of the whole data set. Some tests of the compounds listed are not included; inactive here does not mean inactive elsewhere. Calls of active or inactive are those of the source.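 How the source made its calls: active means inhibition above about 50% at the single test dose (limit read from the data); inactive means the rest.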

The chains behind the UniProt entries cited, without tags or fusion partners. Residues count along the entry.
UniProt Q9BQF6, 706-1050 limits assumed: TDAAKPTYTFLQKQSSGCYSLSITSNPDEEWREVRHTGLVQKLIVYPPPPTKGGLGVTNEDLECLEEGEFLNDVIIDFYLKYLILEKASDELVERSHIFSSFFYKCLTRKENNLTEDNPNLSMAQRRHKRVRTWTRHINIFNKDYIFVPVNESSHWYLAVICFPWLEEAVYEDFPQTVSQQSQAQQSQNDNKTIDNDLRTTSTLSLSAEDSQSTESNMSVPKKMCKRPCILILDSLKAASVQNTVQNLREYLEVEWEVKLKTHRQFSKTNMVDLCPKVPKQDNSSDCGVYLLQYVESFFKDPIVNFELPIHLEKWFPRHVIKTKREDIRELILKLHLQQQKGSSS

This test addresses Sentrin-specific protease 7 (Homo sapiens) (UniProt Q9BQF6). In words: blockers of human SENP7 peptidase activity – biochemical, luminescence, uHTS, primary screen (AID 434973).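 Further: plate controls were DMSO with enzyme for no effect and no enzyme buffer wells for full effect.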 Conditions: recombinant SENP7, Z-RLRGG-aminoluciferin luminescence, 40 min; at 5 µM; active compounds read high.
What is called inhibition is the relative decrease from the control value, in per cent. Take `COc1cc(C(=O)NCC2(N(C)C)CCCCC2)c([N+](=O)[O-])cc1OC`: the inhibition was inactive: -9.84%.

On to `CN(C)C1(CNC(=O)c2ccc(Br)cc2)CCCCC1`, for which the inhibition is inactive: 5.9%.

As to `O=C(NCC1(N2CCCCC2)CCCCC1)c1cccc(Cl)c1`, the inhibition was inactive: -5.23%.

For the compound `COc1ccc(Cl)cc1C(=O)NCC1(N(C)C)CCCCC1`, the inhibition is inactive: 7.42%.

Consider `COc1cccc(C(=O)NCC2(N3CCCCC3)CCCCC2)c1`, for which the inhibition was inactive: 4.06%.

As to `O=C(OC1CN2CCC1CC2)C(CO)(c1ccccc1)c1ccccc1` (centres undefined), the inhibition is inactive: 7.01%.

Turning to `CN(C)c1cccc(C(=O)NCC2(N(C)C)CCCCC2)c1`, the inhibition is inactive: -3.69%.

Regarding `CC(C)Oc1ccc(C(=O)NCC2(N(C)C)CCCCC2)cc1`, the inhibition is inactive: -3%.

As to `COc1ccc(Br)c(C(=O)NCC2(N3CCCCC3)CCCCC2)c1`, the inhibition is inactive: 9.74%.

Regarding `CN1[C@@H]2CC[C@H]1CC(OC(=O)C(O)(c1ccccc1)c1ccccc1)C2` (some centres undefined), the inhibition was inactive: 6.69%.

For the compound `O=C(NCC1(N2CCCCC2)CCCCC1)c1cc([N+](=O)[O-])ccc1Cl`, the inhibition was inactive: 4.37%.

With `Cc1ccc(C(=O)NCC2(N3CCCCC3)CCCCC2)cc1`, the inhibition is inactive: -0.737%.

With `CC(C)N1C(=O)CC2(CCN(CCOC(=O)C(O)(c3ccccc3)c3ccccc3)CC2)C1=O`, the inhibition was inactive: -0.0858%.

On to `COc1cc(SC)ccc1C(=O)NCC1(N(C)C)CCCCC1`, for which the inhibition is inactive: 2.31%.

For the compound `CCN(CC)CC(C)C(C)OC(=O)C(O)(c1ccccc1)c1ccccc1` (centres undefined), the inhibition is inactive: 3.33%.

Consider `CN(C)c1ccc(C(=O)NCC2(N(C)C)CCCCC2)cc1`, for which the inhibition was inactive: 3.79%.

In the case of `CN(C)C1CCCC1OC(=O)C(O)(c1ccccc1)c1ccccc1` (centres undefined), the inhibition is inactive: 2.96%.

Regarding `Cc1ccccc1C(=O)NCC1(N2CCCCC2)CCCCC1`, the inhibition was inactive: 2.95%.

Consider `O=C(NCC1(N2CCCCC2)CCCCC1)c1cccc(Br)c1`, for which the inhibition is inactive: 0.0217%.

`CCN1CCCC(OC(=O)C2(O)c3ccccc3C=Cc3ccccc32)C1` (centres undefined): the inhibition was inactive: -3.45%.

Take `Cc1cc(C(=O)NCC2(N3CCCCC3)CCCCC2)ccc1[N+](=O)[O-]`: the inhibition was inactive: 11%.

Consider `COc1ccc(C(=O)NCC2(N(C)C)CCCCC2)cc1`, for which the inhibition is inactive: -10.6%.

Regarding `O=C(NCC1(N2CCCCC2)CCCCC1)c1cc(F)c(F)cc1Cl`, the inhibition is inactive: 4.85%.

As to `C=CCN1CCN(CCOC(=O)C(O)(c2ccccc2)c2ccccc2)CC1`, the inhibition was inactive: 0.442%.
